Test system: superfused pituitary cells
Assay: Superfusion method using rat pituitary cell column: release of pituitary hormones
Format: cell-based
Conditions: 3 min pulse, 10^-10 to 10^-6 M; bell-shaped dose response
Procedure: FIGS. 5A-5D. The effect of synthetic PACAP38 on the release of pituitary hormones from superfused pituitary cells. A pituitary cell superfusion method to determine the hypophysiotropic activity of samples was conducted as reported by Vigh and Schally. The peptide was applied as a 3 min pulse. The numbers at top indicate; 1,7: 100 mM KCl, 2: 10^-10 M PACAP38, 3: 10^-9 M PACAP38, 4: 10^-8 M PACAP38, 5: 10^-7 M PACAP38, 6: 10^-6 M PACAP38. 0.9 ml fractions were collected every 3 min.
A pituitary cell superfusion method to determine the hypophysiotropic activity of samples was conducted as reported by Vigh and Schally (1984). Pituitaries obtained from 3 adult female rats were cut into small pieces and incubated in a Dubnoff incubator for 45 min at 37° C. in 10 ml of oxygenated Medium 199 (Gibco/Life Technologies) containing 0.5% collagenase (Sigma Type I), 0.25% BSA and […] gentamicin sulphate (Sigma). After this incubation, there were no apparent changes in the pituitary tissue, but the fragments could be easily dispersed into single cells by repeated suction and expulsion from a Pasteur pipet. After 30 to 60 pipet operations, the tissue fell apart. The cell suspension was centrifuged at room temperature for 10 min at 100×g. The cell pellet was then resuspended in 1.0 ml medium. A small aliquot was diluted to count the cells, and the remainder of the suspension was divided into 2 equal volumes. Each volume (containing about 5×10^6 cells and usually between 3.5 and 7.0×10^6) was mixed with 0.5 ml Sephadex G-15 which had been equilibrated with previously oxygenated medium. The mixture of pituitary cells and Sephadex was transferred into 2 chambers of the superfusion apparatus and perfused with the medium. The medium was always freshly prepared in a way similar to that for enzymatic dispersion, omitting the collagenase, then passed through a Millipore filter, and continuously gassed with a mixture of O2 (95%) and CO2 (5%) during the experiment. […]

CC[C@H](C)[C@H](NC(=O)CNC(=O)[C@H](CC(=O)O)NC(=O)[C@H](CO)NC(=O)[C@@H](N)Cc1c[nH]cn1)C(=O)N[C@@H](Cc1ccccc1)C(=O)N[C@H](C(=O)N[C@@H](CC(=O)O)C(=O)N[C@@H](CO)C(=O)N[C@@H](Cc1ccc(O)cc1)C(=O)N[C@@H](CO)C(=O)N[C@@H](CCCNC(=N)N)C(=O)N[C@@H](Cc1ccc(O)cc1)C(=O)N[C@@H](CCCNC(=N)N)C(=O)N[C@@H](CCCCN)C(=O)N[C@@H](CCC(N)=O)C(=O)N[C@@H](CCSC)C(=O)N[C@@H](C)C(=O)N[C@H](C(=O)N[C@@H](CCCCN)C(=O)N[C@@H](CCCCN)C(=O)N[C@@H](Cc1ccc(O)cc1)C(=O)N[C@@H](CC(C)C)C(=O)N[C@@H](C)C(=O)N[C@@H](C)C(=O)N[C@H](C(=O)N[C@@H](CC(C)C)C(=O)NCC(=O)N[C@@H](CCCCN)C(=O)N[C@@H](CCCNC(=N)N)C(=O)N[C@@H](Cc1ccc(O)cc1)C(=O)N[C@@H](CCCCN)C(=O)N[C@@H](CCC(N)=O)C(=O)N[C@@H](CCCNC(=N)N)C(=O)N[C@H](C(=O)N[C@@H](CCCCN)C(=O)N[C@@H](CC(N)=O)C(=O)N[C@@H](CCCCN)C(N)=O)C(C)C)C(C)C)C(C)C)[C@@H](C)O [PACAP38]
stimulated release: ACTH release | GH release | PRL release
